From ChEMBL document CHEMBL3272301, “Improved delivery through biological membranes. 2. Distribution, excretion, and metabolism of N-methyl-1,6-dihydropyridine-2-carbaldoxime hydrochloride, a pro-drug of N-methylpyridinium-2-carbaldoxime chloride” (1976)

Assays:
[1] = Drug excretion in beagle dog urine treated with [14C]-labelled N-Methyl-1,6-dihydropyridine-2-carbaldoxime hydrochloride at 44.6 mg/kg, po by liquid scintillation counting; settings: in vivo, strain beagle
[2] = Drug excretion in beagle dog feces assessed as radioactivity treated with [14C]-labelled N-Methyl-1,6-dihydropyridine-2-carbaldoxime hydrochloride at 44.6 mg/kg, po by liquid scintillation counting; settings: in vivo, strain beagle
[3] = Drug excretion in beagle dog urine assessed as radioactivity treated with [14C]-labelled N-Methyl-1,6-dihydropyridine-2-carbaldoxime hydrochloride at 44.6 mg/kg, po by liquid scintillation counting; settings: in vivo, strain beagle
[4] = Drug excretion in beagle dog feces treated with [14C]-labelled N-Methyl-1,6-dihydropyridine-2-carbaldoxime hydrochloride at 44.6 mg/kg, po by liquid scintillation counting; settings: in vivo, strain beagle
Plasma [5] = assay: Plasma concentration in beagle dog at 5 mg/kg, iv measured after 30 mins; settings: in vivo, 0.5 h, strain beagle
Plasma [6] = assay: Plasma concentration in beagle dog at 5 mg/kg, iv measured after 15 mins; settings: in vivo, 0.25 h, strain beagle
Plasma [7] = assay: Plasma concentration in beagle dog at 5 mg/kg, iv measured after 60 mins; settings: in vivo, 1 h, strain beagle
Plasma [8] = assay: Plasma concentration in beagle dog at 5 mg/kg, iv measured after 45 mins; settings: in vivo, 0.75 h, strain beagle
Plasma [9] = assay: Plasma concentration in beagle dog at 5 mg/kg, iv measured after 5 mins; settings: in vivo, strain beagle

| Structure (SMILES) | Drug excretion [1] | Drug excretion [2] | Drug excretion [3] | Drug excretion [4] | Cp (Plasma [5]) | Cp (Plasma [6]) | Cp (Plasma [7]) | Cp (Plasma [8]) | Cp (Plasma [9]) |
| --- | --- | --- | --- | --- | --- | --- | --- | --- | --- |
| CN1CC=CC=C1/C=N/O.Cl | 67.6 %ID | 50.9 %ID | 43.7 %ID | 19.2 %ID |  |  |  |  |  |
| C[n+]1ccccc1/C=N/O.[Cl-] |  |  |  |  | 5550 ng/mL | 5680 ng/mL | 1250 ng/mL | 2450 ng/mL | 11400 ng/mL |
